Results taken from patent US20260234566A1, “CELL LINES FOR EXPRESSION OF LHCG RECEPTOR” (Ares Trading S.A., priority 2023, published 2026).

Protein sequences, listed by entry. Tags and fused reporters are not part of them. Residues count along the entry.
UniProt P22888, 27-699: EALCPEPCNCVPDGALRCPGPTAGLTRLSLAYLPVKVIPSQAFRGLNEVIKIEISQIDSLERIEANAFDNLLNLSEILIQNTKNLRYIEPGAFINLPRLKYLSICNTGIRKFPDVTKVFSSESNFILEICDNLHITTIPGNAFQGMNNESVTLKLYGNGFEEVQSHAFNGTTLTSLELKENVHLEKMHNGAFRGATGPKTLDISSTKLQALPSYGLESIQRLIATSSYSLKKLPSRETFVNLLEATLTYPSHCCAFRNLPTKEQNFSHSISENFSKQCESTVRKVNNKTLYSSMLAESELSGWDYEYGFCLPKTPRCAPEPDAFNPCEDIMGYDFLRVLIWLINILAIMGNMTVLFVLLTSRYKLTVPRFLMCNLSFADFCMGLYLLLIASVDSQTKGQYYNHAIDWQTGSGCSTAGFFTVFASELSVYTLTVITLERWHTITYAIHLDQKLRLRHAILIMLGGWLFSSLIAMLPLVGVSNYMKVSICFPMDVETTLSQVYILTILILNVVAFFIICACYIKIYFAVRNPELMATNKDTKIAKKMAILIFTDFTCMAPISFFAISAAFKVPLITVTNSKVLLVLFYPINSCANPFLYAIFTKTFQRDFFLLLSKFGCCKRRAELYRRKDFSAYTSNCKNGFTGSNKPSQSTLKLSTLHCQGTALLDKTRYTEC

Experiments:
LHCG receptor [1] = molecular target: T1, LHCG receptor (Homo sapiens, UniProt P22888); assay: Reporter Gene Assay for r-hLH and r-hCG potency, HEK 293-T LHCGR Luciferase; type: cell-based; details: for RGA response to hormone stimulation (dose-response): 40000 cell/well, 4-hour incubation, start 200 ng/ml r-hLH or 250 ng/ml r-hCG, 1:10 dilution; for Intercept confidence interval (linearity) / Slope confidence interval (linearity): log measured vs log theoretical relative potency, 60%-144%; for Intercept confidence interval (linearity): acceptance: encompass 0; for Slope confidence interval (linearity): acceptance: encompass 1
T1 construct: Promega (Luc2P/CRE CS188015 reporter vector); host or cells: HEK 293-T LHCGR Luciferase
Source text: Reporter Gene Assay: method development. A Reporter Gene Assay was set-up for r-hLH and r-hCG potency assessment using HEK 293-T LHCGR Luciferase cell line. The developed method was able to reproduce a portion of the r-hLH and r-hCG mechanism of action: the first steps of the metabolic cascade produced by the receptor binding with the hormone. The assay principle foreseen the cells plating at the same concentration (40000 cell/well) in each well of a 96 well plate and their stimulation with a starting dose of 200 ng/ml of r-hLH or 250 ng/ml of r-hCG, applying a 1:10 dilution step. After 4-hour incubation, the commercial luminescence substrate was added into each well and, after shaking, results were acquired using a plate reader. All the produced data were analyzed using GraphPad Prism software, interpolating the values of RLUs obtained in each well with the log-transformed nanograms/mL of hormone used at each dose.
Two preliminary method linearity were carried out to assess methods performance using r-hLH and r-hCG samples. the feasibility of method linearity was evaluated testing in triplicate different theoretical relative potency levels: 60%, 77%, 100%, 120%, 144%. These different potency levels were calculated starting from the concentration of 200 ng/ml of r-hLH and 250 ng/ml of r-hCG. The starting concentration for both samples was considered as standard. For each sample it was calculated the relative potency (RP %) result.
Linearity results were statistically analyzed using JMP software. JMP analysis included the generation of a graph reporting on the x axes the log Theoretical Relative Potency of tested samples (60%-77%-100%-120%-144%), and on the y axes the log Measured Relative Potency of the tested samples. A common approach to evaluate the goodness of fit of the obtained regression line is to evaluate different parameters as R2, the intercept confidence interval and the slope confidence interval. Thanks to the gained experience following multiple method validations in the laboratory, it was possible to define approximated acceptance criteria for all the parameters (Table 2).

LHCG receptor [2] = molecular target: T1, LHCG receptor; assay: cAMP quantification by FRET (HTRF) kit after stimulation of HEK 293-T LHCGR cells; type: cell-based; details: 30 minutes incubation
Source text: (§1) First transfection efficiency evaluation. In order to evaluate transfection efficiency, transfected cells were stimulated with r-hLH and cAMP production was quantified using a commercial kit based on Fluorescence Resonance Energy Transfer (FRET). The FRET commercial kit used to quantify cAMP was provided by Cisbio. The kit includes a cAMP coupled with d2 (acceptor) and an antibody anti-cAMP conjugated with a cryptate (donor, Europium). The FRET is detected by a plate reader equipped with the Homogeneous Time Resolve Fluorescence (HTRF) detector technology. All the experiments were performed according to the datasheet provided by the kit supplier.
(§2) For data interpretation, the ratio between acceptor and donor emission signals must be calculated for each individual well using the following formula: […]
(§3) All the raw data (Ratio) produced with the FRET kit, were analyzed and graphed with the statistical software GraphPad Prism. The statistical analysis performed was the Ratio Log transformation and creation of the 4PL curve.
(§4) Cells were plated in a 96 well plate at the same concentration and stimulated with different amount of r-hLH, creating a dose-response curve. As negative control, HEK 293-T without transfection were also stimulated. […] The plate was again incubated under shaking conditions for 60 minutes and finally the results were acquired at the plate reader. […]

[3] = test system: HEK 293-T without transfection; assay: cAMP quantification by FRET (HTRF) kit in non-transfected HEK 293-T (negative control); type: cell-based, human; details: 30 minutes incubation
Source text: as §1, §2, §3, §4

LHCG receptor [4] = molecular target: T1, LHCG receptor; assay: First transfection stability: cAMP FRET after r-hLH stimulation of HEK 293T LHCGR Luciferase; type: cell-based; details: passage 17 to passage 41; three banks; 4-parameter curve
Source text: First transfection stability. The LHCG receptor transfection stability was indirectly evaluated through the quantification of the cAMP produced after r-hLH interaction with its receptor. HEK 293T LHCGR Luciferase, were stimulated with scalar doses of r-hLH in a 96-well plate and the quantity of cAMP present in each well was quantified using the FRET commercial kit. A 4-parameter dose-response curve was generated for each test using GraphPad Prism (v.8) software. The EC50 was chosen as the parameter to be monitored over time.

RGA response to hormone stimulation (dose-response) (LHCG receptor [1]) | Intercept confidence interval (linearity) (LHCG receptor [1]) | Slope confidence interval (linearity) (LHCG receptor [1]) | cAMP response to stimulation (dose-response) (LHCG receptor [2]) | EC50 monitored over time (LHCG receptor [4]) | Substance | cAMP response to stimulation (dose-response) [3]
well described dose-response curves | −0.90-0.13 | 0.97-1.19 | – | – | r-hCG: recombinant human Chorionic Gonadotropin, such as Choriogonadotropin alfa Drug Product | –
– | – | – | absent | – | r-hFSH: an analogue hormone of r-hLH, used to verify response specificity | –
well described dose-response curves | −0.74-0.32 | 0.93-1.16 | well described dose-response curve | remained stable | r-hLH: recombinant human Luteinizing Hormone, such as Lutropin Alpha Drug Product | not able to produce a dose-related response
